# Data taken from PubChem BioAssay (NCI).
# “And” between values parts separate entries of the source, which are not always exact repeats. Identical values can stand only once.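 The compound was tested at five concentrations on cells cultured in 96-well plates, with a 48-hour exposure period. GI50 marks 50% less growth. TGI: concentration producing complete growth inhibition.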
# What was measured:
# Assay in all cases: NCI tumour cell line growth inhibition, 48 h
# A498 renal = system: A498 renal
# A549 NSCLC = system: A549 NSCLC
# CAKI-1 renal = system: CAKI-1 renal
# CCRF-CEM leukemia = system: CCRF-CEM leukemia
# COLO 205 colon = system: COLO 205 colon
# DLD-1 colon = system: DLD-1 colon
# DMS 114 small cell lung = system: DMS 114 small cell lung
# DMS 273 small cell lung = system: DMS 273 small cell lung
# EKVX NSCLC = system: EKVX NSCLC
# HCC-2998 colon = system: HCC-2998 colon
# HCT-116 colon = system: HCT-116 colon
# HCT-15 colon = system: HCT-15 colon
# HL-60(TB) leukemia = system: HL-60(TB) leukemia
# HOP-18 NSCLC = system: HOP-18 NSCLC
# HOP-62 NSCLC = system: HOP-62 NSCLC
# HOP-92 NSCLC = system: HOP-92 NSCLC
# HT29 colon = system: HT29 colon
# IGROV1 ovarian = system: IGROV1 ovarian
# K-562 leukemia = system: K-562 leukemia
# KM12 colon = system: KM12 colon
# KM20L2 colon = system: KM20L2 colon
# LOX IMVI melanoma = system: LOX IMVI melanoma
# M19-MEL melanoma = system: M19-MEL melanoma
# MALME-3M melanoma = system: MALME-3M melanoma
# MCF7 breast = system: MCF7 breast
# MOLT-4 leukemia = system: MOLT-4 leukemia
# NCI-H226 lung = system: NCI-H226 lung
# NCI-H23 lung = system: NCI-H23 lung
# NCI-H322M lung = system: NCI-H322M lung
compound,measurement,setting,value
COc1ccc(O)c2c(=O)c3c(OC)cc4c(c3oc12)[C@@H]1C=CO[C@@H]1O4,GI50,A498 renal,4.81 µM and 11.4 µM
same,TGI,A498 renal,41.3 µM and 71 µM
same,GI50,A549 NSCLC,4.79 µM and 2.71 µM
same,TGI,A549 NSCLC,> 125 µM
same,GI50,CAKI-1 renal,1.66 µM and 0.86 µM
same,TGI,CAKI-1 renal,15.2 µM and 18.3 µM
same,GI50,CCRF-CEM leukemia,33.9 µM and 89.7 µM
same,TGI,CCRF-CEM leukemia,> 125 µM
same,GI50,COLO 205 colon,1.71 µM and 1.79 µM
same,TGI,COLO 205 colon,38.9 µM and > 125 µM
same,GI50,DLD-1 colon,0.14 µM
same,TGI,DLD-1 colon,4.94 µM
same,GI50,DMS 114 small cell lung,9.06 µM
same,TGI,DMS 114 small cell lung,61.5 µM
same,GI50,DMS 273 small cell lung,0.0235 µM
same,TGI,DMS 273 small cell lung,1.46 µM
same,GI50,EKVX NSCLC,0.517 µM and 0.185 µM
same,TGI,HCC-2998 colon,1.5 µM and 9.41 µM
same,GI50,HCT-116 colon,5.71 µM and 4.08 µM
same,TGI,HCT-116 colon,> 125 µM
same,TGI,HCT-15 colon,119 µM
same,GI50,HL-60(TB) leukemia,49.7 µM and 32.5 µM
same,TGI,HL-60(TB) leukemia,> 125 µM
same,GI50,HOP-18 NSCLC,3.87 µM
same,TGI,HOP-18 NSCLC,37.4 µM
same,GI50,HOP-62 NSCLC,3.47 µM and 0.396 µM
same,TGI,HOP-62 NSCLC,15.7 µM and 14.9 µM
same,GI50,HOP-92 NSCLC,8.53 µM and 2.59 µM
same,TGI,HOP-92 NSCLC,28.6 µM and 15 µM
same,GI50,HT29 colon,6.86 µM and 35.1 µM
same,TGI,HT29 colon,89.4 µM
same,GI50,IGROV1 ovarian,1.09 µM and 1 µM
same,TGI,IGROV1 ovarian,13.7 µM and 26.6 µM
same,GI50,K-562 leukemia,45.1 µM and > 125 µM
same,TGI,K-562 leukemia,> 125 µM
same,GI50,KM12 colon,0.886 µM and 0.316 µM
same,TGI,KM12 colon,17.9 µM and 31.8 µM
same,GI50,KM20L2 colon,> 125 µM
same,TGI,KM20L2 colon,> 125 µM
same,GI50,LOX IMVI melanoma,16.9 µM and 8.5 µM
same,TGI,LOX IMVI melanoma,> 125 µM
same,GI50,M19-MEL melanoma,4.34 µM
same,TGI,M19-MEL melanoma,72.8 µM
same,GI50,MALME-3M melanoma,3.56 µM and 23.8 µM
same,TGI,MALME-3M melanoma,29.8 µM and 113 µM
same,GI50,MCF7 breast,0.0221 µM and 0.0566 µM
same,TGI,MCF7 breast,1.25 µM and 5.77 µM
same,GI50,MOLT-4 leukemia,43.9 µM and 98.1 µM
same,TGI,MOLT-4 leukemia,> 125 µM
same,GI50,NCI-H226 lung,12.8 µM and 5.38 µM
same,TGI,NCI-H226 lung,31.4 µM
same,GI50,NCI-H23 lung,0.713 µM and 0.106 µM
same,TGI,NCI-H23 lung,35.9 µM and 4.98 µM
same,GI50,NCI-H322M lung,3.31 µM and 2.7 µM
same,TGI,NCI-H322M lung,72.2 µM and > 125 µM
